# Yeast mating assay B: variants of the scFv Ab-14

Binding partner: SARS-CoV-2 spike HR2 peptide, sequence PDVDLGDISGINAS.

The variants keep the heavy chain, the linker and the frameworks of Ab-14 (scFv order VH, a (GGGGS)3 linker, VL).
VH: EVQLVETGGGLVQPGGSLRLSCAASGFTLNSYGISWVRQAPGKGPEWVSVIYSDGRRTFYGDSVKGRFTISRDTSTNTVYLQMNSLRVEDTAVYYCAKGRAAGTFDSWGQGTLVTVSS
VL: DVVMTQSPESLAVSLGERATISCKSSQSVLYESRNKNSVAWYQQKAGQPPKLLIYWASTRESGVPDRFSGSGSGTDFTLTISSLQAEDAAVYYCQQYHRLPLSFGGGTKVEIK

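The parent was found by panning a naive human phage display library on the peptide. These sequences belong to a second round, designed from the earlier measurements on random variants of the parent. Group labels follow the data file (Ctrl: baseline library sampled from a position-specific scoring matrix, with some repeated check sequences; Rand: our label for a block that the file lists under HC and that is probably the random mutants of the ten best first-round binders; GP: Gaussian process model; HC: hill climbing; Gen: genetic algorithm; Gibbs: Gibbs sampling; a sequence that several methods proposed may carry one label only). The scFvs were displayed on barcoded MATa yeast, the peptide on MATalpha yeast. Pairs that bind mate more often; barcode pairs of the diploids are counted by sequencing. The ratio of observed to expected reads was calibrated, replicate by replicate, on BCL2-family standards whose Kd was known from biolayer interferometry. There are six technical replicates.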

The parent's light chain CDRs are KSSQSVLYESRNKNSVA, WASTRES, QQYHRLPLS; each variant's own CDRs replace them letter for letter.
Variants here have at most six changes.
The read-out is the apparent dissociation constant on a log10 scale (nM): the lower, the stronger.
Where no diploid with the target was found in that replicate, the entry reads "nd": below detection, most likely a poor binder, though not proof of it.
Of ten entries with the parent sequence, four were seen in most replicates (averages 0.34 to 2.37), three in one and three in none, so single entries are noisy.
The authors averaged sequences with at least three values out of six and counted those with two or fewer as poor binders.
Values of this round are not directly comparable with the first-round values of the same sequences.
Background: pairings of all light chain designs with three empty control strains gave a value in 4% of cases (median 2.64, 5th percentile 1.59). Values in that range, when seen in few replicates, are hard to tell from nonspecific mating. The control count says in how many pairings with the empty strains this scFv gave a signal.

With KVLQSVLYESRDKNSVA / HASTRED / QQYHRLPLS [GP_HC] the result was 0.19, 0.14, 0.04, 0.05, 0.45, 0.20 (controls 1 of 18). With KSSESVLYESRNKNSVA / SADTRES / QQYIRLPLS [Ctrl] the result was 0.57, 0.25, -0.28, -0.33, 0.27, 0.51 (controls 0 of 18). With KSSQSVLYESRNKNSVA / HASTRFS / QQYHRLPLS [Ctrl] the result was 1.90, 2.27, 1.97, 1.87, 1.44, 2.00 (controls 2 of 18). With KMQQSNLYESRNKNSVA / NASTRMW / QQYHRLPLS [GP_Gibbs] the result was 0.16, -0.01, -0.07, -0.16, -0.08, 0.09 (controls 1 of 18). With KSSQSVWAESRNKNSVA / WASTRES / QQYCRLPCS [Ctrl] the result was 2.53, 2.34, 1.80, 2.80, 2.47, 1.95 (controls 1 of 18).

With KVSQSVLFEPRNKNSVA / DASTRES / QQYHRLPLS [GP_HC] the result was -0.03, -0.12, 0.21, -0.38, 0.06, -0.16 (controls 0 of 18). For KLSQDVLMESRNKNSVA / WASTREL / QQYHRLPLS [Ctrl], the assay gave -0.09, 0.07, -0.24, -0.11, 0.00, 0.04 (controls 0 of 18). Variant KSSQSVLYESRNVNSLA / WASTRES / QQYHRLPLS [Ctrl] gave 1.24, 1.51, 2.23, 1.90, 1.12, 1.73 (controls 0 of 18). With KSDQEVLYESRNKNSVA / WATTRES / QQYHRLPLS [Ctrl] the result was nd, 2.27, 0.82, 1.91, 2.72, nd (controls 0 of 18). Variant KLSQSVLYESRNKNNVA / DASTRED / QQYHRLPLS [GP_Gen] gave -0.44, -0.58, -0.51, -0.76, -0.47, -0.30 (controls 1 of 18).

Variant KSSQSVLYESRNKNSVA / WAMTRES / QQYQRLPLS [Ctrl] showed nd, nd, nd, nd, nd, nd (controls 0 of 18). Variant KFSQSVLYESRNKNSVA / WASTRES / QQYSRLPLS [Ctrl] showed 0.27, 0.25, 0.25, 0.03, 0.30, 0.81 (controls 0 of 18). With KYYPSYLYESRNKNSVA / NASQRES / QQYHRLPLS [GP_HC] the result was 0.19, -0.07, 0.03, -0.43, -0.03, -0.19 (controls 0 of 18). Variant KLSQSVLYESRNKNSVA / NASTRES / QQYHRLPLQ [GP_Gen] gave 0.72, 0.70, 0.36, 0.95, 0.35, 0.65 (controls 2 of 18). Variant KFSQSVLYESRTKNSVA / NAFTRGS / QQYHRLPLS [Rand] gave 0.52, 0.44, 0.45, 0.29, 0.56, 0.65 (controls 1 of 18).

Variant KQSESVLYESRNKNSVA / MASTRES / QQYGRLPLS [GP_HC] gave 0.08, 0.17, -0.28, -0.38, 0.15, 0.17 (controls 0 of 18). For KSNIILLYESRNHNSVA / EASTRES / QQYHRLPLS [Rand], the assay gave 0.46, nd, nd, nd, 1.27, nd (controls 1 of 18). For KSSQSVLYESLNENSVA / QASTRES / QQYDRLPLS [Ctrl], the assay gave 1.91, 1.80, 1.95, 1.29, 1.58, 2.09 (controls 0 of 18). With KSMQSQEYESRNKNSVA / EASTREL / QQYHRLPLS [GP_Gibbs] the result was -0.17, -0.04, 0.06, 1.00, -0.37, 0.22 (controls 0 of 18). With KSSQSVGYISRDKNSVA / WDSTRES / QQYHRLPLS [Ctrl] the result was nd, 3.24, nd, nd, nd, nd (controls 0 of 18).

With KLSQSVLYESRNKNSVA / EASTRET / QQYHRLPLS [GP_Gen] the result was 0.09, -0.06, -0.02, -0.03, -0.12, 0.07 (controls 3 of 18). Variant KAVQSWNYESRNKNSVA / GASTRES / QQYHRLPLI [GP_HC] gave 0.30, 0.76, 0.65, 0.68, -0.03, 0.45 (controls 1 of 18). With KSSQSVLYESRNKNSVA / SLSTRES / QQYHRLPLS [Ctrl] the result was 1.55, 1.27, 0.94, 1.45, 1.11, 1.08 (controls 2 of 18). With KSSISNLEESRNKNSVA / EASTRES / QQYHRLPLS [GP_HC] the result was -0.08, 0.00, -0.16, -0.11, -0.26, -0.03 (controls 2 of 18). Variant KFSQSVLYESRNKNSVA / DASTRSS / QQYHRLPLS [GP_HC] showed -0.15, -0.42, -0.16, -0.29, -0.23, -0.32 (controls 3 of 18).

For KISQSQLYESRNTKSVA / NASTRCS / QQYHRLPLS [GP_Gibbs], the assay gave 0.02, 0.13, 0.16, -0.06, -0.01, 0.09 (controls 1 of 18). Variant KSSISVLLESRNKNSVA / WASTRES / QQYHRLPLS [Ctrl] showed nd, nd, nd, nd, nd, nd (controls 0 of 18). With KLVQSTLYESRNKNSVA / NASTRES / QQYHRLPLS [GP_HC] the result was 0.32, -0.18, -0.49, -0.35, -0.25, -0.06 (controls 2 of 18). With KLSQSVLYESRNKNSVA / EASTRES / QQYHRLPLL [GP_Gen] the result was -0.01, 0.01, -0.01, -0.26, 0.40, 0.15 (controls 0 of 18). For HSQQSVPYESRNKNSVA / NASLRCS / QQYHRLPLS [GP_Gibbs], the assay gave 0.45, 0.06, 0.21, 0.31, 0.10, 0.31 (controls 0 of 18).

With KLQQSVPYESRNKNSVA / SASTRSS / QQYHRLPLS [GP_Gen] the result was 0.27, 0.37, 0.27, 0.22, 0.25, 0.60 (controls 0 of 18). Variant KTSQSVLYESRNKNSVA / WASTRES / QQYHRLPLS [Ctrl] showed 1.70, 1.50, 1.77, 0.80, 1.23, 2.19 (controls 5 of 18). Variant KLPQSDLYESRNKNSVA / NASTREQ / QQYHRLPLS [GP_Gen] gave -0.68, -0.56, -0.85, -1.01, -0.78, -0.52 (controls 0 of 18). Variant KLEQSVLYESRNKNSVA / NASTREK / QQYHRLPLS [GP_Gen] gave -0.52, -0.48, -0.30, -0.52, -0.30, -0.04 (controls 1 of 18). Variant KVSSSYLLESRNKNSVA / EASTRES / QQYHRLPLS [GP_HC] showed -0.26, -0.07, -0.20, -0.25, -0.23, -0.11 (controls 1 of 18).

With KLSQSNLYESRMKNSVA / NASQRES / QQYHRLPLS [GP_Gen] the result was -0.05, -0.18, -0.12, -0.33, -0.30, -0.09 (controls 0 of 18). Variant KVSQSVLYESRNKNSVA / NASQRES / QQYHRLPLS [GP_Gen] showed -0.22, -0.29, -0.34, -0.48, -0.32, -0.25 (controls 1 of 18). Variant KSSQSVLDESWNLNSVA / WASTRES / QQIHRLPLS [Ctrl] showed nd, 1.81, nd, 4.59, 2.59, 2.38 (controls 1 of 18). Variant KVSQSWLYESRNKNSVA / GASTREV / QQYHRLPLS [GP_HC] gave 0.19, 0.01, 0.15, -0.14, -0.11, 0.28 (controls 2 of 18). Variant KTSQGVLYESRNKNSVA / GASVRES / QQYHRLPLS [GP_HC] showed -0.03, -0.07, -0.30, -0.20, -0.12, 0.05 (controls 3 of 18).

Variant KLQQSQLYESRNKNSVA / NASQRES / QQYHRLPLS [GP_Gen] gave 0.07, 0.15, 0.30, -0.04, 0.05, 0.21 (controls 1 of 18). Variant KSSMSVLYESRNKNSVA / WASTRAS / QQYHRLHLS [Ctrl] showed nd, nd, nd, nd, nd, nd (controls 0 of 18). For KLSMSELPESRNKNSVA / WASTREP / QQYHRLPLS [GP_Gibbs], the assay gave 0.24, 0.36, 0.23, 0.38, 0.22, 0.59 (controls 2 of 18). For KSSQSWDYESRNFWSVA / GASTRES / QQYHRLPLS [GP_HC], the assay gave 0.76, 0.97, 0.82, 0.36, 0.59, 0.75 (controls 2 of 18). Variant KSSQSVLYEDNNKNSVA / WASTRES / QQYHRLGLK [Ctrl] showed 1.91, 1.98, 1.11, nd, 2.09, 1.78 (controls 0 of 18).

Variant KASQVYLYESRNKNSVA / GASTRES / QQYHRLPLS [GP_HC] gave -0.26, 0.06, -0.02, 0.12, 0.10, -0.08 (controls 2 of 18). With KSSQKVLYESNNKNSVA / DASTRES / QQYHRLPLS [Ctrl] the result was 0.48, 0.32, 0.20, 0.21, 0.35, 0.43 (controls 1 of 18). With KSSQSVLYESTNKNSVA / WASQRES / QQYMRLPLS [Ctrl] the result was 1.24, 1.23, 0.65, 0.68, 0.84, 1.36 (controls 2 of 18). Variant KSSQSVLYESRWKNSVA / WASTRES / QQYHRLPLS [Ctrl] gave 2.31, 2.34, nd, nd, 2.30, 1.97 (controls 1 of 18).

From the list, the first 3 with no signal in any replicate:

CDR-L1	CDR-L2	CDR-L3	group	replicates, log10 nM	control signals
KSSQSVLYESRNKNSVA	WAMTRES	QQYQRLPLS	Ctrl	nd, nd, nd, nd, nd, nd	0/18
KSSISVLLESRNKNSVA	WASTRES	QQYHRLPLS	Ctrl	nd, nd, nd, nd, nd, nd	0/18
KSSMSVLYESRNKNSVA	WASTRAS	QQYHRLHLS	Ctrl	nd, nd, nd, nd, nd, nd	0/18

Source: Li et al. 2023 (doi:10.1038/s41467-023-39022-2), MIT Lincoln Laboratory and A-Alpha Bio; data file from the FLAb repository.